1 substance from patent US20220323443A1, “COMBINATION THERAPY FOR CANCER TREATMENT” (TAKEDA PHARMACEUTICAL COMPANY LIMITED, priority 2019, published 2022) can be followed below.

Holding throughout (assay): In vivo combination study, syngeneic mouse tumor isograft model
One assay has as its system B16F10 (Melanoma). On the procedure:
(§1) To investigate in vivo antitumor activity of Compound 1 in combination with other agents, tests using Cell Derived Xenograft (CDX), Patient Derived Xenograft (PDX) and Syngeneic mouse tumor isograft model were conducted. Cells or Patient Derived Tumors were inoculated by one method of the following two methods (Method A and B) as shown Table 7.
(§2) Method A; Cells were maintained in either immune deficient nude mice or immune competent mice by subcutaneous inoculation of tumor cells at various concentrations into respected mice. Method B: Patient Derived Tumor s were maintained in nude mice by subcutaneous inoculation of tumor pieces (approx. 2×2×2 mm) into nude mice. Mice with tumor size of approximately 50 mm^3 (e.g., 40-75 mm^3) for syngeneic mouse studies or 200 mm^3 (e.g., 110-270 mm^3) for xenograft studies were randomly assigned to dose groups on the day (Day 0) before start date of dosing.
(§3) Compound 1 (crystalline form I) was suspended in 0.5 w/v % methylcellulose and administered orally to mice. Antibodies which administered in the experiment were described in Table 8.
(§4) Tumor size was measured by caliper and tumor volume was estimated using the equation V=(LW^2)/2, where L and W are tumor length and width, respectively and reported in cubic millimeters.
(§5) These values were compared across treatment groups to assess whether the differences in the trends over time were statistically significant. To compare pairs of treatment groups, the following mixed-effects linear regression model was fit to the data using the maximum likelihood method:
(§6) For synergy analyses, the observed differences in the log tumor values were used to calculate AUC values for each animal. In instances when an animal in a treatment group was removed from the study, the last observed tumor value was carried forward through all subsequent time points. The AUC for the control, or vehicle, group was calculated using the predicted values from the pairwise models described above. We defined a measure of synergy as follows:
(§7) where Ak and Bk are the k^th animal in the individual treatment groups and ABk is the k^th animal in combination treatment group. AUCcd is the model-predicted AUC for the control group and was treated as a constant with no variability. The standard error of the synergy score was calculated as the square root of the sum of squared standard errors across groups A, B, and AB. The degrees of freedom were estimated using the Welch-Satterthwaite equation. A hypothesis test was performed to determine if the synergy score differed from 0. P values were calculated by dividing the synergy score by its standard error and tested against a t-distribution (two-tailed) with the above-calculated degrees of freedom.
(§8) The effect was classified into four different categories. It was considered synergistic if the synergy score was less than 0 and additive if the synergy score wasn't statistically different from 0. If the synergy score was greater than zero, but the mean AUC for the combination was lower than the lowest mean AUC among the two single agent treatments, then the combination was sub-additive. If the synergy score was greater than zero, and the mean AUC for the combination was greater than the mean AUC for at least one of the single agent treatments, then the combination was antagonistic.

The test system of assay [1] is CT26 Mouse syngeneic colon tumor model. The method, then: as §1, §2, §3, §4, §5, §6, §7, §8
In another assay the test system is A20 (Lymphoma). On the procedure:
as §1, §2, §3, §4, §5, §6, §7, §8

On to “NKTR-214: listed among checkpoint inhibitors; given intravenously at 0.8 mg/kg”, for which the “Result (combination with Compound 1, tumor growth)” value with B16F10 (Melanoma) (B16F10 (67 mm^3), Compound 1 60 mg/kg orally QD × 3/wk day 0,1,2,7,8,9, NKTR-214 0.8 mg/kg intravenously Q9D Day 0,9,18) was “Additive”; in assay [1] (CT26 (64 mm^3) FIG. 8, Compound 1 60 mg/kg orally QD × 3/wk day 0,1,2,7,8,9,14,15,16, NKTR-214 0.8 mg/kg intravenously Q9D Day 0,9,18), “Additive”; with A20 (Lymphoma) (A20 (61 mm^3), Compound 1 60 mg/kg orally QD × 3/wk day 0,1,2,7,8,9,14,15,16, NKTR-214 0.8 mg/kg intravenously Q9D Day 0,9,18) it was “Additive”. The CR per group in the assay with B16F10 (Melanoma) (note to Table 9, by note order: NKTR-214 study in B16F10 (67 mm^3)) is listed as 0; in assay [1] (note to Table 9, by note order: NKTR-214 study in CT26 (64 mm^3)), 0; in the assay with A20 (Lymphoma) (note to Table 9, by note order: NKTR-214 study in A20 (61 mm^3)) it was 3.
